The values that follow are results of earlier work, collected in paper PMC6692079 (Journal of medicinal chemistry, 2018).

The chains behind the UniProt entries cited, without tags or fusion partners. Where a name states a change or a piece, a line headed by the entry shows the natural chain unless it says otherwise.
UniProt P41145: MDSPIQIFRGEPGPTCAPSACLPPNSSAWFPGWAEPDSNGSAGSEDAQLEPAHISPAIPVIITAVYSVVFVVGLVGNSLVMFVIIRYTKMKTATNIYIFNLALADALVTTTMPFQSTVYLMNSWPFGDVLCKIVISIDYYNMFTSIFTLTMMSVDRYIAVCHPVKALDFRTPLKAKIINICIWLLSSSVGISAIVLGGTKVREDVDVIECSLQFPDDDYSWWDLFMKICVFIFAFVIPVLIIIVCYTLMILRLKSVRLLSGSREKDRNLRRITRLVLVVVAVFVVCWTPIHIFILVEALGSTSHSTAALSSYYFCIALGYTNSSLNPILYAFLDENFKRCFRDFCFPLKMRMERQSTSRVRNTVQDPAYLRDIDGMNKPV

This series has as its target human κ opioid receptor (Homo sapiens, UniProt P41145). To be noted: ratio of Ke values; previously reported; cited from earlier work.

Regarding `CC(C)[C@@H](CN1CCCCC1)NC(=O)[C@H]1Cc2ccc(O)cc2CN1` [Compound 1, (3R)‑7-Hydroxy‑N‑[(1S)‑2-methyl-1-(piperidin-1-ylmethyl)propyl]-1,2,3,4-tetrahydroisoquinoline-3-carboxamide], the δ/κ is recorded as > 441.
